Experimental data published in ChEMBL document CHEMBL4665828, “Glucosylpolyphenols as Inhibitors of Aβ-Induced Fyn Kinase Activation and Tau Phosphorylation: Synthesis, Membrane Permeability, and Exploratory Target Assessment within the Scope of Type 2 Diabetes and Alzheimer's Disease” (J Med Chem, 2020).

Experiments:
Prunus dulcis = experiment: Inhibition of almond beta-glucosidase at 100 uM using p-nitrophenyl glycosides as substrate measured for 125 secs by spectrophotometry analysis relative to control; conditions: time 125.0 sec
Saccharomyces cerevisiae = experiment: Inhibition of Saccharomyces cerevisiae alpha-glucosidase at 100 uM using p-nitrophenyl glycosides as substrate measured for 125 secs by spectrophotometry analysis relative to control; conditions: time 125.0 sec

| Compound | inhibition (Prunus dulcis) [%] | inhibition (Saccharomyces cerevisiae) [%] |
| --- | --- | --- |
| O=C(Oc1ccc([C@@H]2O[C@H](CO)[C@@H](O)[C@H](O)[C@H]2O)cc1OC(=O)c1ccccc1)c1ccccc1 | 17 | – |
| OC[C@H]1O[C@@H](c2c(O)ccc3ccccc23)[C@H](O)[C@@H](O)[C@@H]1O | – | 12 |
